pEC50, pKi: −log10 of the molar value.
Tests used:
ORL-1 receptor [1] = biological target: T1, ORL-1 receptor (Homo sapiens, UniProt P41146); experiment: Radioligand dose-displacement binding assay, ORL-1; details: read-out: Ki ORL-1 [Average ± SD]; determined according to the procedures of U.S. Pat. No. 8,476,271
ORL-1 receptor [2] = biological target: T1, ORL-1 receptor; experiment: Functional [^35S]GTPγS binding assay, ORL-1; type: biochemical

Sequences of proteins named here, by UniProt entry; tags and fusion partners are left off. A change or cut given only in a name is not applied to a line headed by its entry.
UniProt P41146: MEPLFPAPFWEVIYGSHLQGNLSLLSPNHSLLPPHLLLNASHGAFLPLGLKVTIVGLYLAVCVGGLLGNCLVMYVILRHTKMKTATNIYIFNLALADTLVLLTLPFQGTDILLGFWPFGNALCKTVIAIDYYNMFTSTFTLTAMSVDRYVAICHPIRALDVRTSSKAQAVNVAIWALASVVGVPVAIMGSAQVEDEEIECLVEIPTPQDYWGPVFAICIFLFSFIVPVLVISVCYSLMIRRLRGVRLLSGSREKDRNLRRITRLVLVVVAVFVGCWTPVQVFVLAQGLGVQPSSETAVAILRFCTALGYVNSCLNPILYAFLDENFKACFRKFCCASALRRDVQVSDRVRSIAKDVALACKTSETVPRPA

Q: How did the pKi (ORL-1 receptor [1]) turn out when `CNC(=O)Cn1c(=O)n(C2CCN([C@@H]3Cc4cccc5cccc3c45)CC2)c2ccccc21` [Compound W-212393] was run?
A: 9.15

Q: And the “agonist classification at ORL-1 from Emax” value (ORL-1 receptor [2]; from ORL-1 Emax results in Table 21)?
A: full agonist

Q: What about the pEC50 (ORL-1 receptor [2]; read-out: GTPγS ORL-1 EC50 [Mean ± Standard Error of the Mean], determined according to the procedures of U.S. Pat. No. 8,476,271) of the same compound?
A: 8.69

From patent US10974081B2, “Treatment and prevention of sleep disorders” (Purdue Pharma L.P., priority 2016, dated 2021)
